Literature values in patent US20250387506A1, “Carborane-Based Boron-Enriched PEG Linkers for mAb Ligation Synthesis and Methods” (TAE Life Sciences LLC, priority 2024, published 2025).

Tests used:
[1] = tested on: F98 glioma (wt and EGFRvIII tumors); conditions: 24 hr, intra-brain injection, brain orthotopic F98 glioma
[2] = tested on: EGFR-expressing F98 rat glioma cells; conditions: radio-iodinated conjugate

Substance: cetuximab targeted borylated dendrimer
- Boron concentration in surrounding normal right and left brain [1]: 15±5 μg/g tissue
- Boron concentration in tumor ([1]; EGFRvIII tumor for the conjugate): over 90 μg/g tissue
- Dose-response on incubation with cells (immunoreactivity) [2]: saturable dose-response
